Literature values in patent publication US11951152B1, “Microparticle compositions for controlled delivery of telmisartan and actinomycin D” (University of South Florida, priority 2019, dated 2024).

Molecular target: angiotensin II receptor type 1 (AT1) (Homo sapiens, UniProt P30556)
Conditions: AT1 versus AT2 selectivity

- binding affinity greater for AT1 than for AT2: about 3000 times
Structure (SMILES): CCCc1nc2c(C)cc(-c3nc4ccccc4n3C)cc2n1Cc1ccc(-c2ccccc2C(=O)O)cc1 [Telmisartan]
